{
  "source": "patent US20050004011A1",
  "about": "“Compositions and methods for treating bacterial infections with protein-dalbavancin complexes” (priority 2002, published 2005)",
  "system": "N,N′-diacetyl-Lys-D-Ala-D-Ala",
  "assay": "ITC of binding to tri-peptide, with and without HSA",
  "conditions": "for Kd: read-out: Kdiss",
  "note": "Where two headings read alike, the source gives them in different places.",
  "data": [
    {"smiles": "CN[C@H]1C(=O)N[C@@H]2Cc3ccc(cc3)Oc3cc4cc(c3O[C@@H]3O[C@H](C(=O)O)[C@@H](O)[C@H](O)[C@H]3NC(=O)CCCCCCCCC(C)C)Oc3ccc(cc3Cl)[C@@H](O)[C@@H]3NC(=O)[C@H](NC(=O)[C@@H]4NC(=O)[C@@H](NC2=O)c2cc(cc(O)c2Cl)Oc2cc1ccc2O)c1ccc(O)c(c1)-c1c(O[C@H]2O[C@H](CO)[C@@H](O)[C@H](O)[C@@H]2O)cc(O)cc1[C@@H](C(=O)NCCCN(C)C)NC3=O", "note": "[Dalbavancin]", "values": [
      {"measurement": "Kass", "setting": "T 25 ° C., [HSA] 601 μM", "result": 21800, "unit": "M⁻¹"},
      {"measurement": "Kass", "setting": "T 37 ° C., [HSA] 482 μM", "result": 12500, "unit": "M⁻¹"},
      {"measurement": "Kd", "setting": "T 25 ° C., [HSA] 601 μM", "result": 45.9, "unit": "µM"},
      {"measurement": "Kd", "setting": "T 37 ° C., [HSA] 482 μM", "result": 80, "unit": "µM"}
    ]}
  ]
}
